Measurements as given in patent publication US20160040126A1, “REGULATION OF DIFFERENTIATION INTO DOPAMINERGIC NEURONS BY METALLOPROTEASE” (Korea University Research and Business Foundation, priority 2012, published 2016).

Assays:
ERK = test: Phosphorylation of ERK in midbrain neurons; format: cell-based, mice
[1] = test system: midbrain neurons derived from normal mice and D2R−/− mice; test: Differentiation of midbrain neurons into dopaminergic neural cells (TH immunostaining: number of TH-positive cells, neurite length, neurite number); format: cell-based
Description: Midbrain neurons derived from normal mice and D2R−/− mice were treated with each of EGF, EGF+haloperidol, EGF+AG1478 and EGF+PD98059, and then stained with TH by an immunostaining technique. Then, the number of TH-positive cells, the length of neurites and the number of neurites in the midbrain neurons were compared between EGF, EGF+haloperidol, EGF+AG1478 and EGF+PD98059 to determine the abilities to induce differentiation into dopaminergic neural cells.
Then, the number of TH-positive cells, the length of neurites and the number of neurites in the midbrain neurons were compared to determine the abilities to induce differentiation into dopaminergic neural cells.

CCCN1CCC[C@@H]2Cc3n[nH]cc3C[C@H]21 [quinpirole]
phosphorylation of ERK by the agent (ERK): 194%
synergistic effect with EGF on the increase in the number of dopaminergic neural cells [1]: no synergistic effect
